What was measured:
[1] = test system: bitter impression of aqueous caffeine solution; test: Reducing bitterness of a bitter substance solution, rated by a panel of experts (caffeine); format: in vivo; conditions: 500 ppm caffeine; for Bitter impression (1-10) with: error = 95% confidence range
Experimental: (§1) In order to quantify the reduction in the bitter impression, the bitterness of an aqueous bitter substance solution and a sample containing the same quantity of bitter substance and a varying quantity of the exemplary compound, was determined by a panel of experts (rating 0 [not bitter] to 10 [extremely bitter]). Evaluation took place by calculating the reduction (in %) in the bitter impression from the average values of the assessments of the bitter substance solution or the solutions containing bitter substance and exemplary compound. […] (2,4-DHB) was used as a comparison from U.S. Pat. No. 5,643,941.

[2] = test system: bitter impression of aqueous quinine hydrochloride solution; test: Reducing bitterness of a bitter substance solution, rated by a panel of experts (quinine hydrochloride); format: in vivo; conditions: 50 ppm substance, 5 ppm quinine hydrochloride
Experimental: as §1

[3] = substance concentration not given

Compound	% reduction in bitter impression [1, 3]	Tester positive (number of testers who were able to identify masking) ([1]; substance concentration not given, 15 testers total)	Bitter impression (1-10) with [1, 3]	% reduction in bitter impression [2]	Tester positive (number of testers who were able to identify masking) ([2]; 13 testers total)	Bitter impression (1-10) with ([2]; error = 95% confidence range)	% reduction in bitter impression ([1]; 50 ppm substance)	Tester positive (number of testers who were able to identify masking) ([1]; 50 ppm substance)	Bitter impression (1-10) with ([1]; 50 ppm substance)
COc1cc(CCC(=O)c2ccc(O)cc2O)ccc1O [Compound 6, 3-(4-hydroxy-3-methoxyphenyl)-1-(2,4-dihydroxyphenyl)propan-1-one]	24%, n.s.	11	3.3 ± 0.7						
COc1cc(CCC(=O)c2ccc(O)cc2)ccc1O [Compound 10, 3-(4-hydroxy-3-methoxyphenyl)-1-(4-hydroxyphenyl)propan-1-one]				34%, p < 0.1	11	2.4 ± 0.8	29%, p < 0.05	15	3.7 ± 0.8

— patent publication US8778987B2, “Use of 4-hydroxychalcone derivatives for masking an unpleasant taste” (Symrise AG, priority 2008, dated 2014)
